Binding of CDR-mutated scFvs to a peptide of the spike HR2 region

All variants were tested on one target, the spike HR2 peptide PDVDLGDISGINAS (SARS-CoV-2).

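The parent was found by panning a naive human phage display library on the peptide. Library AAYL52 holds single substitutions and randomly drawn double and triple substitutions in the CDRs. In AlphaSeq, yeast of one mating type display the scFv and yeast of the other type display the target. The frequency of each diploid, read from paired DNA barcodes, reflects how well the two displayed proteins bind. Scores were corrected for input abundance and mapped to Kd with protein pairs of known affinity run in the same pool. The assay was run in three technical replicates.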

Each scFv is VH, a 15-residue (Gly4Ser)3 linker, VL, as in the parent Ab-95, and differs from it in the CDRs of the light chain only.
VH: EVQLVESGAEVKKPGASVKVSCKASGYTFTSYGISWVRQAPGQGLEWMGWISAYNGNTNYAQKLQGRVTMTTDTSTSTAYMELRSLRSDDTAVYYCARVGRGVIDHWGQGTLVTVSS
VL: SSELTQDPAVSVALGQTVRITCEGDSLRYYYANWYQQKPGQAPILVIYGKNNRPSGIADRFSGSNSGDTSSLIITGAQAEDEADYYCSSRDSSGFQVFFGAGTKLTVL

Changes read parent residue, position, new residue, counted from the first residue of the VL shown.
Numbers give log10(Kd / nM), so 0 is 1 nM and 3 is 1 µM. Smaller is tighter.
Replicates are averaged; those with no signal do not enter the mean.
"no signal" means that the variant was in the library but no mating with the target was seen in any replicate; the authors take this as a sign of poor binding, and no number exists.
Empty control strains, which show no peptide, gave a signal in 28% of pairings with library AAYL52; the median was 3.91 and 95% of these signals were weaker than 2.90. No background was subtracted.

changes | mean, log10 nM | replicates with signal
S26M+Q96V | 2.40 | 2 of 3
N51H+S88E+V97G | no signal | 0 of 3
S26L+D91F | 4.33 | 2 of 3
P54T+R90L+S92T | 4.35 | 1 of 3
Y31P+S55G+Q96F | 1.84 | 3 of 3
E23P+F98Q | 2.94 | 1 of 3
N52I+S88L+G94E | 2.11 | 3 of 3
L27P+R53A+G94C | 3.75 | 2 of 3
Y31W+D91F+Q96E | 2.86 | 3 of 3
G24M+G94V+F95K | 1.86 | 3 of 3
G24R+A32N+D91E | no signal | 0 of 3
G24L+S88N+S89D | 4.49 | 3 of 3
S26Y+P54I+G94Y | 2.01 | 3 of 3
S26P+R28T+K50M | 3.01 | 1 of 3
R90F+S93Q+Q96S | no signal | 0 of 3
L27Q+P54H+F98V | 4.26 | 1 of 3
R28T+R90K+Q96K | 2.77 | 3 of 3
L27Q+R53E+F95C | 4.94 | 2 of 3
V97E+F98A | 3.16 | 3 of 3
S93C+Q96L+V97Y | 2.45 | 3 of 3
R28T+N52Q+S88Q | 2.35 | 3 of 3
Y31A+R53A+S55C | 2.43 | 3 of 3
L27M+R53C | 4.59 | 1 of 3
N52K+P54L | 3.23 | 3 of 3
N33H+K50A+R90G | 3.98 | 1 of 3
L27F+R53C+G94D | 4.08 | 2 of 3
R28P+R53W+S93E | 4.13 | 2 of 3
G49C+K50F+V97L | 3.31 | 3 of 3
Y30S+N52Y+G94I | 1.33 | 3 of 3
R28T+R90W | 2.98 | 1 of 3
R28Y+K50S+S55W | 1.34 | 3 of 3
S26N+N51Y+R90N | 4.98 | 2 of 3
S26D+N51F | 4.54 | 2 of 3
A32E+N52S+S55Y | 2.98 | 1 of 3

Further variants, results first:

mean, log10 nM | replicates with signal | changes
3.52 | 3 of 3 | R28M+K50A+G94H
4.08 | 2 of 3 | N51E+R90V
4.48 | 2 of 3 | S26N+R28G+G49C
no signal | 0 of 3 | A32Q+P54V+V97K
no signal | 0 of 3 | L27R+A32E+G49L
3.50 | 1 of 3 | Y30H+R90C+F98E
4.62 | 1 of 3 | E23S+G49I+V97Y
2.98 | 2 of 3 | P54K+G94Q+F95N
4.39 | 2 of 3 | L27H+P54K+S89K
1.70 | 3 of 3 | Y30A+Q96I
4.35 | 1 of 3 | R53W+S89I+F98R
5.54 | 1 of 3 | D25W+Y29A+N52F
3.58 | 1 of 3 | R28Q+A32G+S89F
1.50 | 3 of 3 | Y31K+N52D
4.17 | 1 of 3 | L27H+A32K+S89T
3.78 | 3 of 3 | S26D+N52K+F98V
no signal | 0 of 3 | G24H+S55N+D91Q
4.13 | 2 of 3 | G24I+Y31S+R53Q
6.03 | 1 of 3 | Y29W+S93N+G94R
3.36 | 2 of 3 | S26F+R28W+S88A
3.10 | 3 of 3 | P54V+S89I+R90Y
3.37 | 3 of 3 | E23Y+N52Y+S92H
4.10 | 2 of 3 | L27V+G49E+P54A
5.10 | 1 of 3 | S26T+K50M+R53P
2.61 | 2 of 3 | R53L+F95S
3.78 | 1 of 3 | N33V+S93F+F95T
no signal | 0 of 3 | G24Q+N33P+S88Y
3.69 | 2 of 3 | R53A+D91H+S92T
no signal | 0 of 3 | Y30C+Y31R+G94A
4.16 | 2 of 3 | D25V+L27W+G94C
3.99 | 1 of 3 | K50F+N52Y+R53I
2.63 | 3 of 3 | Q96S+V97F
1.27 | 3 of 3 | D25M+Y29K+Y30S
2.08 | 3 of 3 | R28L+N33K+S89I

Again, the first 8 entries without any signal:

changes | mean, log10 nM | replicates with signal
N51H+S88E+V97G | no signal | 0 of 3
G24R+A32N+D91E | no signal | 0 of 3
R90F+S93Q+Q96S | no signal | 0 of 3
A32Q+P54V+V97K | no signal | 0 of 3
L27R+A32E+G49L | no signal | 0 of 3
G24H+S55N+D91Q | no signal | 0 of 3
G24Q+N33P+S88Y | no signal | 0 of 3
Y30C+Y31R+G94A | no signal | 0 of 3

Source: Engelhart et al. 2022 (doi:10.1038/s41597-022-01779-4), MIT Lincoln Laboratory and A-Alpha Bio; data file from the FLAb repository.